{"sequences": {"note": "Amino acid sequences for entries named in this document (tags omitted). A change or cut given only in a name is not applied to a line headed by its entry.", "UniProt Q9Y3Z3": "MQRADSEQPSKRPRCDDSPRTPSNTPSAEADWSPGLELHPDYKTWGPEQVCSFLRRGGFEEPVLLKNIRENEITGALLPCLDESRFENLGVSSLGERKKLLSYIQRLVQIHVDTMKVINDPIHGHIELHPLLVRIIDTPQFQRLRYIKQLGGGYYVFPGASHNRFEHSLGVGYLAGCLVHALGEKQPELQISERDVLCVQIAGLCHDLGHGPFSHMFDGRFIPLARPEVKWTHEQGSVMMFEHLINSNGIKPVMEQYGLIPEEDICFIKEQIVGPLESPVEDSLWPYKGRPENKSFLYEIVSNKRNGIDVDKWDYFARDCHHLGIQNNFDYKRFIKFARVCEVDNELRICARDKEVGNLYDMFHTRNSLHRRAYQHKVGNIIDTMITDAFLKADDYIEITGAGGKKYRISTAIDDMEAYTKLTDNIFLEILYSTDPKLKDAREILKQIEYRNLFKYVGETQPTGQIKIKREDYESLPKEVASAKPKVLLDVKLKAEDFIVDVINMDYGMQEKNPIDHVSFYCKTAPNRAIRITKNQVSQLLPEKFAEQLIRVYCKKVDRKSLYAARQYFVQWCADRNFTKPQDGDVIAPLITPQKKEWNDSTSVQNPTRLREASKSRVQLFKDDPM"}, "source": "ChEMBL document CHEMBL5483193", "about": "“Identification and evaluation of small-molecule inhibitors against the dNTPase SAMHD1 via a comprehensive screening funnel” (iScience, 2024)", "note": "Only a part is listed here, and it is no random draw."}
{"target": "Deoxynucleoside triphosphate triphosphohydrolase SAMHD1 (Homo sapiens) (UniProt Q9Y3Z3)", "test": "Compound was evaluated for the inhibition of human recombinant SAMHD1 at 5uM in a enzyme-coupled malachite green assay; call rule not given here"}
{"smiles": "NC(=O)Nc1ccc([As](=O)(O)O)cc1", "inhibition": "inactive: -7.81%"}
{"smiles": "Cc1cc(C)nc(SC(NC(=O)c2ccccc2)C(Cl)(Cl)Cl)n1", "note": "(stereo not drawn)", "inhibition": "inactive: -4.5%"}
{"smiles": "COc1cccc(OC)c1C(=O)N1C[C@@H]2CCCN2[C@@H]2CCCC[C@@H]21", "inhibition": "inactive: -8.16%"}
